Source: publication PMC6156078, “Thalidomide promotes degradation of SALL4, a transcription factor implicated in Duane Radial Ray syndrome” (eLife, 2018)

By UniProt entry, the sequences of proteins in these tests, tags left out. Where a name states a change or a piece, a line headed by the entry shows the natural chain unless it says otherwise. Residues count along the entry.
UniProt Q9UJQ4: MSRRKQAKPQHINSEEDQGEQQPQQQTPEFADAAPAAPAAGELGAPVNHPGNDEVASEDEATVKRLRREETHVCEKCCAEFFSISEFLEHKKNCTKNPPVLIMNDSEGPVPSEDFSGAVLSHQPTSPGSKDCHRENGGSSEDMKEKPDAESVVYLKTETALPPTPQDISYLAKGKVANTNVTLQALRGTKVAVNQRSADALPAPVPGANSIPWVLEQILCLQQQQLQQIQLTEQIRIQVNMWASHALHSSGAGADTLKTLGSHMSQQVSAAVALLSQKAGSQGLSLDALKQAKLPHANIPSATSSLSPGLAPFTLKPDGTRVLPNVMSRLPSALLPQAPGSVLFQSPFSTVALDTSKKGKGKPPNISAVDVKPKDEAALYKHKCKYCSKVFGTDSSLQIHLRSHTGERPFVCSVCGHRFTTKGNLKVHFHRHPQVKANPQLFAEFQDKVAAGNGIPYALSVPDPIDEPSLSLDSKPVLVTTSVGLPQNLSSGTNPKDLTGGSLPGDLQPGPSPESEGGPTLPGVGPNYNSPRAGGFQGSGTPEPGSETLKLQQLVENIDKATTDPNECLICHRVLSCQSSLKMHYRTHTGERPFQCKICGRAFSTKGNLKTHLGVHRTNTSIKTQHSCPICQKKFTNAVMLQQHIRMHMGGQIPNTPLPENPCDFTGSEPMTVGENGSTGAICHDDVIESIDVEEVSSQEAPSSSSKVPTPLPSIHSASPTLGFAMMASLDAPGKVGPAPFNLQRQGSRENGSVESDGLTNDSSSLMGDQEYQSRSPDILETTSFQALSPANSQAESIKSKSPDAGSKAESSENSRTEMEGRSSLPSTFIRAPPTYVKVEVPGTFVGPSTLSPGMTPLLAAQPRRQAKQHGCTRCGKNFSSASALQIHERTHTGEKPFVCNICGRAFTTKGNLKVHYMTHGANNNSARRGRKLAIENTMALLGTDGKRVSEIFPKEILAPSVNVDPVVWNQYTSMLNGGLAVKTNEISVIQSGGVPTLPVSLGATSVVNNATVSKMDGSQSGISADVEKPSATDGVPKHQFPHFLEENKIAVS
UniProt P48729, 2-365 isoform P48729-2: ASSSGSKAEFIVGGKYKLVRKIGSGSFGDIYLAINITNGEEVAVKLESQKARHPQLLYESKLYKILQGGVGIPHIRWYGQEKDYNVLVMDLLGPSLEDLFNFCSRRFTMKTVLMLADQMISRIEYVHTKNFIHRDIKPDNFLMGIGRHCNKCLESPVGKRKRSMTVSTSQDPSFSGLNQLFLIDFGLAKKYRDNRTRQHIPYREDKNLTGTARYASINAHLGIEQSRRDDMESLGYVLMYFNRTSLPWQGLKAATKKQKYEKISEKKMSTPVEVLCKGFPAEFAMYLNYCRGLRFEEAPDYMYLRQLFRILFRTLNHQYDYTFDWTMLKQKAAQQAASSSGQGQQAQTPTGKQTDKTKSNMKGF
UniProt Q8NEG4, 2-500 limits assumed: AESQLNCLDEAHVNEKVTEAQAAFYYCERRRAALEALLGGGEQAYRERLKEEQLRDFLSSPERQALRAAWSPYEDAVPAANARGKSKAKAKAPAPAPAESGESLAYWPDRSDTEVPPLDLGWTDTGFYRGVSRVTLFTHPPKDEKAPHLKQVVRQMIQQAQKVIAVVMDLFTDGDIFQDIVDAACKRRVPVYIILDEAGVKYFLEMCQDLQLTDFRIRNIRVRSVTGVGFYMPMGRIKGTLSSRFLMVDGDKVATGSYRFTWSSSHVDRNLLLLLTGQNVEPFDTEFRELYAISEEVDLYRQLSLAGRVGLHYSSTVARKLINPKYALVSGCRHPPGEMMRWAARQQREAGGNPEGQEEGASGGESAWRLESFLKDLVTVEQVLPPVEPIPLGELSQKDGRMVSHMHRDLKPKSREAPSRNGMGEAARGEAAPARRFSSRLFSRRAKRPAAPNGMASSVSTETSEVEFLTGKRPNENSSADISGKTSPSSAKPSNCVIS

Experiments:
[1] = biological target: T1, SALL4 (Homo sapiens, UniProt Q9UJQ4); assay: Western blot of SALL4 in Kelly, SK-N-DZ, HEK293T and H661 cells; conditions: increasing concentrations, 24 h
[2] = biological target: CSNK1A1 (Homo sapiens, UniProt P48729); assay: TMT proteomics Kelly cells: CSNK1A1 abundance; conditions: 5 h vs DMSO, thalidomide 10 µM, lenalidomide 5 µM, pomalidomide 1 µM
[3] = biological target: T2, RAB28 (Homo sapiens, UniProt P51157); assay: TMT proteomics Kelly cells: RAB28 abundance; conditions: 5 h vs DMSO, thalidomide 10 µM, lenalidomide 5 µM, pomalidomide 1 µM
[4] = typical dose 200–400 mg thalidomide, 25 mg lenalidomide, 2 mg pomalidomide; ref Chen et al., 2017; Hoffmann et al., 2013; Teo et al., 2004; read-out: maximum plasma concentration (Cmax); cited from earlier work
[5] = biological target: T1, SALL4; assay: TMT proteomics Kelly cells: SALL4 abundance; conditions: 5 h vs DMSO, thalidomide 10 µM, lenalidomide 5 µM, pomalidomide 1 µM
[6] = biological target: FAM83F (Homo sapiens, UniProt Q8NEG4); assay: TMT proteomics H9 hESC: FAM83F abundance; format: cell-based; conditions: H9 hES cells, 5 h vs DMSO; thalidomide 10 µM, lenalidomide 5 µM, pomalidomide 1 µM
From the text: (§1) We established a mass spectrometry-based workflow (Figure 1—figure supplement 1A) to detect IMiD-induced protein degradation in hESC.
(§2) Proteins were precipitated using methanol/chloroform.

[7] = biological target: T1, SALL4; assay: TMT proteomics H9 hESC: SALL4 abundance; format: cell-based; conditions: H9 hES cells, 5 h vs DMSO; thalidomide 10 µM, lenalidomide 5 µM, pomalidomide 1 µM
From the text: as §1, §2

[8] = biological target: T1, SALL4; assay: Western blot of SALL4 in H9 hESC; format: cell-based; parameters: endogenous in cells; host or cells: Kelly, H9 hESC, SK-N-DZ cells; conditions: increasing doses, 24 h
[9] = biological target: T2, RAB28; assay: TMT proteomics H9 hESC: RAB28 abundance; format: cell-based; parameters: protein abundance was analyzed using TMT quantification mass spectrometry; endogenous in cells; host or cells: Kelly, MM1s, H9 hESC, SK-N-DZ cells; conditions: H9 hES cells, 5 h vs DMSO; thalidomide 10 µM, lenalidomide 5 µM, pomalidomide 1 µM
From the text: as §1, §2

Nc1cccc2c1CN(C1CCC(=O)NC1=O)C2=O (stereo not drawn) [lenalidomide]
SALL4 protein levels (western blot) [1]: dose-dependent decrease in SALL4 protein levels
logFC CSNK1A1 [2]: -0.4774
logFC RAB28 [3]: -0.4827
Cmax [4]: ~2500 nM
logFC SALL4 [5]: -0.759
logFC FAM83F [6]: -1.411
logFC SALL4 [7]: -0.6197
SALL4 protein levels (western blot) [8]: dose-dependent decrease in protein levels
logFC RAB28 [9]: -0.7139
